# From patent US20100190817A1, “LARGE SUBSTITUENT, NON-PHENOLIC AMINE OPIOIDS” (RENSSELAER POLYTECHNIC INSTITUTE, priority 2008, published 2010)
# Sequences of proteins named here, by UniProt entry; tags and fusion partners are left off.
# UniProt P35372, whole entry: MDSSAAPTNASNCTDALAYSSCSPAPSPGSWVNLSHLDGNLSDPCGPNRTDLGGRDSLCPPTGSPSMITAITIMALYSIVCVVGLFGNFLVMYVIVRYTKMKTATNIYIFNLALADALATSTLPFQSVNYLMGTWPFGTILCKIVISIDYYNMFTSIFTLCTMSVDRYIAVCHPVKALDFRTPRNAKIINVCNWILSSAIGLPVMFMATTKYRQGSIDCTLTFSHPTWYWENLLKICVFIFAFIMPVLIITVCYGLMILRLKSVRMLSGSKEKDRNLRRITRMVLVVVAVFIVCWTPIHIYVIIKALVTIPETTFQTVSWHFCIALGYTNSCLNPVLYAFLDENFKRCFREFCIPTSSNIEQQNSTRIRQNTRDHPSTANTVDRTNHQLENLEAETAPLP
# UniProt P41145, whole entry: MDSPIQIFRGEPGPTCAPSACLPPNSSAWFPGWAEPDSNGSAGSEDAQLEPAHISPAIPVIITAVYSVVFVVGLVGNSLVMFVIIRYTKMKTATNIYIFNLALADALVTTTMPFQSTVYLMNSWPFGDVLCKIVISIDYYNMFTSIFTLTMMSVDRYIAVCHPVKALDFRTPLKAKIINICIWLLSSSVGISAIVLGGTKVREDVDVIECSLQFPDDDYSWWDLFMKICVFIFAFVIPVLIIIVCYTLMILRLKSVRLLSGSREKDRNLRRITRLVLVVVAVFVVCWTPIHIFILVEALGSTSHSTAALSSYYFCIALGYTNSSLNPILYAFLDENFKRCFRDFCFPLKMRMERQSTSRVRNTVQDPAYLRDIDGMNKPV
# pKi: −log10 of the molar value.
# Legend:
# human μ opioid receptor = human μ opioid receptor (Homo sapiens, UniProt P35372); test: Opioid receptor binding assay, [3H]DAMGO (μ); details: read-out: Ki [3H]DAMGO (μ), CHO cell membranes, 0.25 nM [3H]DAMGO, ± S.E.
# human δ opioid receptor = human δ opioid receptor (Homo sapiens, UniProt P41143); test: Opioid receptor binding assay, [3H]naltrindole (δ); details: read-out: Ki [3H]Naltrindole (δ), CHO cell membranes, 0.2 nM [3H]naltrindole, ± S.E.
# human κ opioid receptor = human κ opioid receptor (Homo sapiens, UniProt P41145); test: Opioid receptor binding assay, [3H]U69,593 (κ); details: read-out: Ki [3H]U69,593 (κ), CHO cell membranes, 1 nM [3H]U69,593, ± S.E.
smiles,measurement,setting,value
CC1C2Cc3ccc(C(=O)NCCc4ccc(-c5ccc(N(C)C)cc5)cc4)cc3C1(C)CCN2CC1CC1 (stereo not drawn),pKi,human μ opioid receptor,10.06
same,pKi,human δ opioid receptor,8.85
same,pKi,human κ opioid receptor,9.12
